Here are results for one compound from US12527821B2, “Compositions and methods related to tumor cell killers and vaccines” (THE BRIGHAM AND WOMEN'S HOSPITAL, INC., priority 2018, dated 2026).

In the assay the test system is intracranial rGBMi2-TK-GF1 tumor. Conditions: compared to saline-treated control.

`Nc1nc2c(ncn2COC(CO)CO)c(=O)[nH]1` [GCV, Ganciclovir]: the “elimination of therapeutic cells in vivo (BLI)” value was “eliminated”.
